{
  "source": "paper PMC10663846",
  "about": "(The Journal of Biological Chemistry, 2023)",
  "key": {"[1]": {"system": "OVCAR8 cells and human PBMCs co-culture, TNFα secretion", "test": "OVCAR8:PBMC co-culture, secreted TNFα (ELISA)", "format": "cell-based", "details": "1:10 OVCAR8:PBMC, 24 h, MN1.4 500, 100 or 10 μM, rPD-L1 1 μM", "method": "For co-culture experiments with excess PBMCs ratios, OVCAR8 cells were seeded at 2 × 10^4 cells/well on a 24-well plate and allowed to adhere overnight. The next day, cells were stimulated with 100 ng/ml IFNγ and two vials of human PBMCs were thawed. On day 3, concentrations of PBMCs and OVCAR8 cells were measured. The concentration of PBMCs required for a 1:10 OVCAR8:PBMC ratio was calculated from the OVCAR8 concentration. PBMCs were plated on a separate 24-well plate (1 ml/well) and stimulated with 5 μg/ml of anti-CD3 and 5 μg/ml of anti-CD28 for 30 min before drug treatment. […] After 30 min, media was removed from OVCAR8 wells and replaced with 1 ml of treated PBMCs. After 24 h, the supernatants were collected from each well, and centrifuged at 10,000g for 5 min.\nFor co-culture experiments analyzed via IL-2 PCR-ELISA, supernatants were processed using the IL-2 Human ProQuantum Immunoassay Kit (ThermoFisher Scientific, Cat. No. A35603) according to manufacturer’s instructions with the following modifications. The low-volume protocol was followed for samples from excess OVCAR8 co-culture experiments and antibody control experiments. […] TNFα levels were also assessed in excess PBMC co-culture samples using TNFα ELISA MAX Deluxe Set from BioLegend (Cat. No. 430204) according to manufacturer’s instructions. Absorbance was measured using a Tecan Spark multimode plate reader. […]"}, "[2]": {"system": "OVCAR8 cells and human PBMCs co-culture, IL-2 secretion", "test": "OVCAR8:PBMC co-culture, secreted IL-2 (PCR-ELISA)", "format": "cell-based", "details": "1:10 OVCAR8:PBMC, 24 h; MN1.4 500, 100 or 10 μM; rPD-L1 1 μM; triplicate, two donors", "method": "For co-culture experiments with excess OVCAR8 ratios, OVCAR8 cells were seeded at 2 × 10^5 cells/well on a 6-well plate and allowed to adhere overnight. The next day, cells were stimulated with 100 ng/ml IFNγ (R&D Systems, Cat. No. 285-IF-100), and two vials of human PBMCs were thawed according to manufacturer’s instructions. On day 3, concentrations of PBMCs and OVCAR8 cells were measured using QuadCount Automated Cell Counter (Accuris Instruments). The concentration of PBMCs required for a 10:1 OVCAR8:PBMC ratio was calculated from the OVCAR8 concentration. […] After 30 min, media was removed from OVCAR8 wells and replaced with 1 ml of treated PBMCs. […]\nFor co-culture experiments with excess PBMCs ratios, OVCAR8 cells were seeded at 2 × 10^4 cells/well on a 24-well plate and allowed to adhere overnight. […] On day 3, concentrations of PBMCs and OVCAR8 cells were measured. The concentration of PBMCs required for a 1:10 OVCAR8:PBMC ratio was calculated from the OVCAR8 concentration. […]\nFor co-culture experiments analyzed via IL-2 PCR-ELISA, supernatants were processed using the IL-2 Human ProQuantum Immunoassay Kit (ThermoFisher Scientific, Cat. No. A35603) according to manufacturer’s instructions with the following modifications. […] Absorbance was measured using a Tecan Spark multimode plate reader. […]"}},
  "data": [
    {"substance": "rPD-L1: full-length, recombinant PD-L1 (R&D systems, Cat. No. 156-B7-100)", "values": [
      {"measurement": "TNFα levels compared to untreated co-culture control", "setting": "[1]", "result": "significantly decreased"},
      {"measurement": "IL-2 levels compared to untreated co-culture control", "setting": "[2]", "result": "significantly decreased"}
    ]}
  ]
}
